The series in a line: water solubility of the powder product. In kind it is physicochemical. To be noted: for solubility: water. Here is the method: The obtained L-carnitine calcium fumarate is in uniform powder form with good fluidity, more than 98% of which is smaller than 40 mesh size. […] The product has a calcium content of 6.76% with good non-hygrosopicity.
Fumaric acid (23.2 g, 0.2 mol) is suspended in 740 mL water and calcium hydroxide (7.4 g, 0.1 mol) is added under stirring. The mixture is heated up to 70° C. under stirring violently till the solution is clean and allowed to react for two hours, then concentrated under reduced pressure. The dried substance is suspended in 200 mL ethanol under stirring thoroughly, then L-carnitine (16.12 g, 0.1 mol) is added and allowed to react for 3 h at 60˜70° C. Thereafter the obtained substance is cooled at −5˜5° C. for five hours. L-carnitine calcium fumarate is thus obtained by filtration, and in this case 39.5 g of product can be obtained after drying, the yield being 95%.
The obtained L-carnitine calcium fumarate is in uniform powder form and has good fluidity, greater than 98% of which is smaller than 40 mesh in granular size. […] The product has a calcium content of 9.28%, with better non-hygrosopicity.

As for “L-Carnitine Calcium Fumarate (1:2:1) [Example 2]”, the solubility is listed as 3.5 g/100 mL water. For the setting “cold water, powder smaller than 40 mesh size”, this substance yielded a water-solubility of 3.5 g/100 mL. For “L-Carnitine Calcium Fumarate (2:2:1) [Example 1]”, the solubility is recorded as 1.8 g/100 mL water.

For the origin of these results see patent US20110245537A1, “L-carnitine calcium fumarate, preparation method and application for the same” (Liaoning Konepnutra Co., Ltd, priority 2009, published 2011).
